Assay: Safety and tolerability (treatment-emergent adverse events) in the phase 1 drug-drug interaction study
Details: atorvastatin-only group, after Day 7 (so in the source)

## CC(C)c1c(C(=O)Nc2ccccc2)c(-c2ccccc2)c(-c2ccc(F)cc2)n1CC[C@@H](O)C[C@@H](O)CC(=O)O [Atorvastatin, atorvastatin]
  Subjects reporting at least one treatment-emergent adverse event (TEAE): 20%

Reference: patent publication US20230310372A1 (Amarin Pharmaceuticals Ireland Limited, priority 2013, published 2023)
